In patent publication US20140303164A1, “THERAPEUTIC COMPOUNDS” (Gilead Sciences, Inc., priority 2013, published 2014):

Assay: Test B: Cytotoxicity Assay
Assay type: cell-based
Details: human, uninfected MT-4 cells, same protocol as Test A
Procedure: MT-4 cells were next mixed with HIV-IIIb at an m.o.i of 0.003 for 1 hour, after which time 35 μL of virus/cell mixture (2000 cells) was immediately added to each well containing 40 μL of diluted compound. The plates were then incubated at 37° C. for 5 days. After 5 days of incubation, 25 μl of 2× concentrated CellTiter-Glo™ Reagent (catalog #G7571, Promega Biosciences, Inc., Madison, Wis.) was added to each well containing MT-4 cells. Cell lysis was carried out by incubating at room temperature for 10 min and then chemiluminescence was read.
Test B: Cytotoxicity Assay
Compound cytotoxicity and the corresponding CC50 values was determined using the same protocol as described in the antiviral assay (Test A) except that uninfected cells were used.

Cn1nc(NS(C)(=O)=O)c2c(Cl)ccc(-c3ccc(C#CC(C)(O)C(F)F)nc3[C@H](Cc3cc(F)cc(F)c3)NC(=O)Cn3nc(C(F)F)c4c3C(F)(F)[C@@H]3C[C@H]43)c21 (stereo partly drawn) [Compound 169, N-((1S)-1-(3-(4-chloro-1-methyl-3-(methylsulfonamido)-1H-indazol-7-yl)-6-(4,4-difluoro-3-hydroxy-3-methylbut-1-yn-1-yl)pyridin-2-yl)-2-(3,5-difluorophenyl)ethyl)-2-((3b-S,4aR)-3-(difluoromethyl)-5,5-difluoro-3b,4,4a,5-tetrahydro-1H-cyclopropa[3,4]cyclopenta[1,2-c]pyrazol-1-yl)acetamide]
CC50 at 5 days: 12.4 µM

Cn1nc(N[S+](C)[O-])c2c(Cl)ccc(-c3ccc(C#CC(C)(C)O)nc3[C@H](Cc3cc(F)cc(F)c3)NC(=O)Cn3nc(C(F)F)c4c3C(F)(F)[C@@H]3C[C@H]43)c21 (stereo partly drawn) [Compound 180C, N-((1S)-1-(3-(4-chloro-1-methyl-3-(methylsulfinamido)-1H-indazol-7-yl)-6-(3-hydroxy-3-methylbut-1-yn-1-yl)pyridin-2-yl)-2-(3,5-difluorophenyl)ethyl)-2-((3b-S,4aR)-3-(difluoromethyl)-5,5-difluoro-3b,4,4a,5-tetrahydro-1H-cyclopropa[3,4]cyclopenta[1,2-c]pyrazol-1-yl)acetamide]
CC50 at 5 days: 21.3 µM

Cn1nc(NS(C)(=O)=O)c2c(Cl)ccc(-c3ccc(C#CC(C)(C)O)nc3[C@H](Cc3cc(F)cc(F)c3)NC(=O)Cn3nc(C(F)F)c4c3C(F)(F)[C@@H]3C[C@H]43)c21 [Compound 19G, (S)—N-(1-(3-(4 chloro-1-methyl-3-(methylsulfonamido)-1H-indazol-7-yl)-6-(3-hydroxy-3-methylbut-1-ynyl)pyridin-2-yl)-2-(3,5-difluorophenyl)ethyl)-2-((3bS,4aR)-5,5-difluoro-3-(difluoromethyl)-3b,4,4a,5-tetrahydro-1H-cyclopropa[3,4]cyclopenta[1,2-c]pyrazol-1-yl)acetamide]
CC50 at 5 days: 19.6 µM

Cn1nc(NS(C)(=O)=O)c2c(F)ccc(-c3ccc(C#CC(C)(C)O)nc3[C@H](Cc3cc(F)cc(F)c3)NC(=O)Cn3nc(C(F)F)c4c3C(F)(F)[C@@H]3C[C@H]43)c21 [Compound 75, 2-((3b-S,4aR)-3-(difluoromethyl)-5,5-difluoro-3b,4,4a,5-tetrahydro-1H-cyclopropa[3,4]cyclopenta[1,2-c]pyrazol-1-yl)-N—((S)-2-(3,5-difluorophenyl)-1-(3-(4-fluoro-1-methyl-3-(methylsulfonamido)-1H-indazol-7-yl)-6-(3-hydroxy-3-methylbut-1-yn-1-yl)pyridin-2-yl)ethyl)acetamide]
CC50 at 5 days: > 40.3 µM

COc1ccc(-c2ccc(C#CC(C)(C)O)nc2[C@H](Cc2cc(F)cc(F)c2)NC(=O)Cn2nc(C(F)F)c3c2C(F)(F)[C@@H]2C[C@H]32)c2c1c(NS(C)(=O)=O)nn2C [Compound 141D, 2-((3b-S,4aR)-3-(difluoromethyl)-5,5-difluoro-3b,4,4a,5-tetrahydro-1H-cyclopropa[3,4]cyclopenta[1,2-c]pyrazol-1-yl)-N—((S)-2-(3,5-difluorophenyl)-1-(6-(3-hydroxy-3-methylbut-1-yn-1-yl)-3-(4-methoxy-1-methyl-3-(methylsulfonamido)-1H-indazol-7-yl)pyridin-2-yl)ethyl)acetamide]
CC50 at 5 days: 19.8 µM

Cc1ccc(-c2ccc(C#CC(C)(C)O)nc2[C@H](Cc2cc(F)cc(F)c2)NC(=O)Cn2nc(C(F)F)c3c2C(F)(F)[C@@H]2C[C@H]32)c2c1c(NS(C)(=O)=O)nn2C [Compound 112D, 2-((3b-S,4aR)-3-(difluoromethyl)-5,5-difluoro-3b,4,4a,5-tetrahydro-1H-cyclopropa[3,4]cyclopenta[1,2-c]pyrazol-1-yl)-N—((S)-2-(3,5-difluorophenyl)-1-(3-(1,4-dimethyl-3-(methylsulfonamido)-1H-indazol-7-yl)-6-(3-hydroxy-3-methylbut-1-yn-1-yl)pyridin-2-yl)ethyl)acetamide]
CC50 at 5 days: 13.9 µM

Cn1nc(NS(C)(=O)=O)c2c(Cl)ccc(-c3ccc(C#CC(C)(C)O)nc3[C@H](Cc3cc(F)cc(F)c3)NC(=O)Cn3nc(C(F)(F)F)c4c3C(F)(F)[C@@H]3C[C@H]43)c21 [Compound 78, N—((S)-1-(3-(4-chloro-1-methyl-3-(methylsulfonamido)-1H-indazol-7-yl)-6-(3-hydroxy-3-methylbut-1-yn-1-yl)pyridin-2-yl)-2-(3,5-difluorophenyl)ethyl)-2-((3b-S,4aR)-5,5-difluoro-3-(trifluoromethyl)-3b,4,4a,5-tetrahydro-1H-cyclopropa[3,4]cyclopenta[1,2-c]pyrazol-1-yl)acetamide]
CC50 at 5 days: 14.4 µM
